## Binding of CDR-mutated scFvs to a peptide of the spike HR2 region

The target is the same throughout: PDVDLGDISGINAS, from the HR2 region of SARS-CoV-2 spike.

Each scFv is VH, the linker GGGGSGGGGSGGGGS, VL, as in the parent Ab-95, and differs from it in the CDRs of the light chain only.
VH: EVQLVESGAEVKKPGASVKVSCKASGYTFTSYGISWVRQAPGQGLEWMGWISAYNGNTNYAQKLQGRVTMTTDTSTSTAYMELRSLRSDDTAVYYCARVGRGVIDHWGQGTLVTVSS
VL: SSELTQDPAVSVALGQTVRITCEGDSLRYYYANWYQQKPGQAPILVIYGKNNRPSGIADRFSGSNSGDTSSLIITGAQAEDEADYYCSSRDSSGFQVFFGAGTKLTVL

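Library AAYL52 holds single substitutions and randomly drawn double and triple substitutions in the CDRs. The assay is AlphaSeq: two haploid yeast populations carry antibody and antigen on their surface. The frequency of each diploid, read from paired DNA barcodes, reflects how well the two displayed proteins bind. Each replicate has its own calibration line, from reference interactions of the BCL2 family. Mating was done three times.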

The whole VL of each variant is written out. Values are log10 of the apparent Kd in nM; lower means stronger binding. A mean of the replicates is given; it leaves out those without a signal. "n.d." means that the variant was in the library but no mating with the target was seen in that replicate; the authors take this as a sign of poor binding, and no number exists. Three control strains display no target. For library AAYL52, 28% of the pairings with them gave a signal, with a median of 3.91 and one signal in twenty below 2.90, so weak values seen in few replicates may be background. The control count says in how many pairings with the empty strains this scFv gave a signal, with their mean in brackets.

VL	log10 Kd, replicates	log10 Kd (nM), mean	control signals
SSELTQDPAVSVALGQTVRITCWGDSLRYYYANWYQQKPGQAPILVIYGKNNRPSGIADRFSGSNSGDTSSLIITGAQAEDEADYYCSSADSSGFQLFFGAGTKLTVL	3.04 / 4.28 / 3.05	3.46	2/9 (3.20)
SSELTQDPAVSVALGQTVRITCEHDSLRYYYANWYQQKPGQAPILVIYGANNRPSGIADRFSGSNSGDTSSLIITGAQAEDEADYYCSSRDSGGFQVFFGAGTKLTVL	3.07 / 3.10 / 2.75	2.97	4/9 (3.68)
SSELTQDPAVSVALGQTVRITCEGDSLRYYYANWYQQKPGQAPILVIYGKNNRPSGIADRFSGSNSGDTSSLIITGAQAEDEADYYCSSRDSSGWQVFFGAGTKLTVL	n.d. / n.d. / n.d.	n.d.	0/9
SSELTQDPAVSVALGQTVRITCEGMSGRYYYANWYQQKPGQAPILVIYGTNNRPSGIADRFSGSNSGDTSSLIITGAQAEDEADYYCSSRDSSGFQVFFGAGTKLTVL	2.63 / 2.33 / 3.10	2.69	2/9 (4.34)
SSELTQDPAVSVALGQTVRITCEGASLRYTYANWYQQKPGQAPILVIYGKNNRPSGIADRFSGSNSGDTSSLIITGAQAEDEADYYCSSRDSSNFQVFFGAGTKLTVL	1.85 / 1.64 / 1.57	1.69	7/9 (4.13)
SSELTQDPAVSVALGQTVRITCEGDSLRYYYANWYQQKPGQAPILVIYNKNNRWSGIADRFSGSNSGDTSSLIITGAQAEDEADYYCSSRDSSGFNVFFGAGTKLTVL	n.d. / n.d. / n.d.	n.d.	1/9 (2.47)
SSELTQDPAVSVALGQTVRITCEGDKLLYYYANWYQQKPGQAPILVIYGKWNRPSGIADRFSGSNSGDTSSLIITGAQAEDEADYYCSSRDSSGFQVFFGAGTKLTVL	n.d. / n.d. / n.d.	n.d.	1/9 (3.12)
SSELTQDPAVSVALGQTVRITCEGDSLREYYANWYQQKPGQAPILVIYGKFNRPSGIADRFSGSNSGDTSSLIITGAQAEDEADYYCSSRDSSTFQVFFGAGTKLTVL	4.46 / n.d. / 4.33	4.40	2/9 (3.53)
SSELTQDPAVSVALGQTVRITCEGDSLRYYYANWYQQKPGQAPILVIYKINNRPSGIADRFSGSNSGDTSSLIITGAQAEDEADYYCSSRDSCGFQVFFGAGTKLTVL	n.d. / 3.41 / n.d.	3.41	2/9 (3.32)
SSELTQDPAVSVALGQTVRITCELDSQRYYYANWYQQKPGQAPILVIYGKNNRPSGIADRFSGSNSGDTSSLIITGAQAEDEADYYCSSRDSSDFQVFFGAGTKLTVL	5.05 / n.d. / n.d.	5.05	1/9 (3.51)
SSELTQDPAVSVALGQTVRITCEGDSLMYYYMNWYQQKPGQAPILVIYGKNNRPSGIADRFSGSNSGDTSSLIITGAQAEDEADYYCSSRDSSGFQEFFGAGTKLTVL	4.02 / n.d. / n.d.	4.02	4/9 (4.15)
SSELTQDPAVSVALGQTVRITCEGDSLRYYYANWYQQKPGQAPILVIYGKNNWPSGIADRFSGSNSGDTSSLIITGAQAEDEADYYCSSRDSSGGQVLFGAGTKLTVL	n.d. / n.d. / n.d.	n.d.	5/9 (4.05)
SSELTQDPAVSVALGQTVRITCEGDSLRYRYWNWYQQKPGQAPILVIYGKNNRYSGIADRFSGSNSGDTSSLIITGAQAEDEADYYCSSRDSSGFQVFFGAGTKLTVL	3.46 / n.d. / n.d.	3.46	4/9 (3.77)
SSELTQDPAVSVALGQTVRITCEGDSVRYYYANWYQQKPGQAPILVIYGKNGRPSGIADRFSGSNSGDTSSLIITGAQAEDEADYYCSSRDSSGFQVFFGAGTKLTVL	n.d. / n.d. / 2.77	2.77	0/9
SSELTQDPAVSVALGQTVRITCEGDSLRYYYANWYQQKPGQAPILVIYGKNNDPSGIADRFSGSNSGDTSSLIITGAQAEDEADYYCSVRDVSGFQVFFGAGTKLTVL	n.d. / n.d. / n.d.	n.d.	2/9 (3.67)
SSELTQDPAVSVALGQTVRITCEGDSLRKYYMNWYQQKPGQAPILVIYGKNNRPSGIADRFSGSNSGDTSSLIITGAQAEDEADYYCSSRDSSGFQVFFGAGTKLTVL	4.51 / 5.17 / 3.37	4.35	0/9
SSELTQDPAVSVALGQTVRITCEGDSLRYYYANWYQQKPGQAPILVIYGRNNRPSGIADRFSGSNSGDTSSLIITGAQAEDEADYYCSSRDSSGFQVRFGAGTKLTVL	2.08 / 2.33 / 1.86	2.09	0/9
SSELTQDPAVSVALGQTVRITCEGDSLRYWYANWYQQKPGQAPILVIYGKNNPPSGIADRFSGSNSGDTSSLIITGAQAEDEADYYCSSRDSSGFQVFFGAGTKLTVL	5.81 / 4.16 / n.d.	4.98	5/9 (4.09)
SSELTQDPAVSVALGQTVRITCEGASHRYYYANWYQQKPGQAPILVIYGKNNRPSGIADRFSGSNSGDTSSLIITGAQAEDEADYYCSRRDSSGFQVFFGAGTKLTVL	3.01 / 3.77 / 3.81	3.53	2/9 (4.55)
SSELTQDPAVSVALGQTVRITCEGDSLRYYYANWYQQKPGQAPILVIYGKNNCPSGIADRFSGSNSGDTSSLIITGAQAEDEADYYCSSRDSSCFQVFFGAGTKLTVL	3.39 / 4.50 / n.d.	3.94	6/9 (4.07)
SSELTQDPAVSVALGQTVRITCSGDSLRYYYANWYQQKPGQAPILVIYIKNNRPSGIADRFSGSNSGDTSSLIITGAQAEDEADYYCSSRDSSGFQYFFGAGTKLTVL	4.62 / n.d. / n.d.	4.62	2/9 (3.64)
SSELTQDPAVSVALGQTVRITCEGDSLRYYYAGWYQQKPGQAPILVIYGKNNDPWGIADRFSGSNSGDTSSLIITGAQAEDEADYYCSSRDSSGFQVFFGAGTKLTVL	n.d. / n.d. / n.d.	n.d.	0/9

A selection of 2 entries from above:

VL	log10 Kd, replicates	log10 Kd (nM), mean	control signals
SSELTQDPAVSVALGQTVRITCEGDSLRYYYANWYQQKPGQAPILVIYGKNNRPSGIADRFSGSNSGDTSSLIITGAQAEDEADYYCSSRDSSGWQVFFGAGTKLTVL	n.d. / n.d. / n.d.	n.d.	0/9
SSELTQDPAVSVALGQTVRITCEGASHRYYYANWYQQKPGQAPILVIYGKNNRPSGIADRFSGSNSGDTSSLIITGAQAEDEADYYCSRRDSSGFQVFFGAGTKLTVL	3.01 / 3.77 / 3.81	3.53	2/9 (4.55)

From the AlphaSeq antibody data of Engelhart et al. 2022 (doi:10.1038/s41597-022-01779-4), copy in the FLAb collection.